Results as given in patent CN108203464A.

The chains behind the UniProt entries cited, without tags or fusion partners. Residues count along the entry.
UniProt Q15116, 25-288: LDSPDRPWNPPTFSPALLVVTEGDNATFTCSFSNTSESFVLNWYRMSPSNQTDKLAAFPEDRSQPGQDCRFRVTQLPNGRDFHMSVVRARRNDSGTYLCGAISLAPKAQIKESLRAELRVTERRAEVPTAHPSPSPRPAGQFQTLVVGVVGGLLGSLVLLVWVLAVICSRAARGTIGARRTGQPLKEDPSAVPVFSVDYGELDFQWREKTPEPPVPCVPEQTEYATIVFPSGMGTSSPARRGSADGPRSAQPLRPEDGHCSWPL
UniProt Q15116, 25-170 limits assumed: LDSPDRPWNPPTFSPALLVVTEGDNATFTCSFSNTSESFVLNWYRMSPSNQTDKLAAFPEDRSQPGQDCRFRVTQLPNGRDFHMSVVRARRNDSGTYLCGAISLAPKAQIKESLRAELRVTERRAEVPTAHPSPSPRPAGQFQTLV
UniProt Q15116, 25-167 limits assumed: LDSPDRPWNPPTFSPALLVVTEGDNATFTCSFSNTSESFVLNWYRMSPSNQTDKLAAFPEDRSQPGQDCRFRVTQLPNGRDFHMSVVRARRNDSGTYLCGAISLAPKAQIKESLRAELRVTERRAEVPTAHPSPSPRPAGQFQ

How the values were obtained:
[1] = target: human PD-1 expressed on cells (human) (UniProt Q15116); assay: cell-based or functional assay
[2] = target: 重组蛋白PD-1-Fc (GenScript, Z03370): human PD-1 extracellular domain fused to human IgG1 Fc (human) (UniProt Q15116); assay: indirect ELISA, PD-1-Fc coated at 0.5 μg/ml
[3] = target: 重组人PD-1蛋白 (recombinant human PD-1 protein) (human) (UniProt Q15116); assay: competition ELISA: human PD-1 coated, biotin-PD-L1-Fc 0.15 μg/ml as competitor

“Pembrolizumab (Keytruda), Merck & Co., Inc (antibody)” gave an IL-2 secretion, mixed lymphocyte reaction (CD4+ T cells + allogeneic dendritic cells), EC50 [1] of 0.144 μg/ml, an RLU, NFAT-RE reporter effector cells (PD-1) co-cultured with PD-L1 target cells, EC50 [1] of 0.327 µg/mL and an EC50 [2] of 9.15 ng/mL. For the same substance, the IC50 [3] was 0.224 µg/mL.
